Our source for the growth inhibition values is PubChem BioAssay (NCI).

The entries are a selection whose mix differs from that of the whole data set. Where a structure was tested more than once in an assay, its records may differ in their call. Active and inactive are the calls of the source. Rule as the data show it: active = growth inhibition above about 70%; inactive = the rest.

The nature of this experiment: NCI Yeast Anticancer Drug Screen. Data for the rad18 strain (AID 177). As to conditions: S. cerevisiae rad18 mutant growth inhibition, stronger effect = higher value. The protocol: Growth inhibition of yeast strains with defined genetic alterations is measured as a screen for potential anti-cancer activity. Selected strains with alterations in DNA damage repair or cell cycle control were exposed to compounds and growth inhibition was measured relative to vehicle treated controls. The strain used in this assay is rad18

In the case of `Cc1cccc(C[N+](C)(CCCl)CCCl)c1[N+](=O)[O-]`, the growth inhibition was inactive: 30% (at 1.2 µM); active: 78% (at 3.7 µM); active: 94% (at 11.0 µM); active: 95% (at 33.0 µM); active: 96% (at 100.0 µM).

With `Cc1ccc([N+](=O)[O-])c(C[N+](C)(CCCl)CCCl)c1`, the growth inhibition runs as follows: (at 1.2 µM) inactive: 25%; (at 3.7 µM) active: 79%; (at 11.0 µM) active: 94%; (at 33.0 µM) active: 94%; (at 100.0 µM) active: 96%.

For the compound `COc1ccc([N+](=O)[O-])c(C[N+](C)(CCCl)CCCl)c1`, the growth inhibition (at 1.2 µM) is inactive: 11%; the growth inhibition (at 3.7 µM) was inactive: 28%; the growth inhibition (at 11.0 µM) is active: 74%; the growth inhibition (at 33.0 µM) was active: 94%; the growth inhibition (at 100.0 µM) was active: 96%.

In the case of `Cn1cnc([N+](=O)[O-])c1C[N+](C)(CCCl)CCCl`, the growth inhibition was inactive: 11% (at 1.2 µM); inactive: 54% (at 3.7 µM); active: 88% (at 11.0 µM); active: 93% (at 33.0 µM); active: 94% (at 100.0 µM).

For `COc1ccc(C[N+](C)(CCCl)CCCl)c([N+](=O)[O-])c1`, the growth inhibition (at 1.2 µM) was active: 70%; the growth inhibition (at 3.7 µM) was active: 73%; the growth inhibition (at 11.0 µM) was active: 86%; the growth inhibition (at 33.0 µM) is active: 89%; the growth inhibition (at 100.0 µM) was active: 92%.

For the compound `ClCCN1CCCCC1CCl` (stereo not given), the growth inhibition is, setting by setting: (at 1.2 µM) inactive: 7%; (at 3.7 µM) inactive: 31%; (at 11.0 µM) active: 83%; (at 33.0 µM) active: 96%; (at 100.0 µM) active: 97%.
